In PubChem BioAssay (Tox21):
Where “and” joins values, the source holds several entries; their conditions need not be identical. Equal entries are not always repeated. The entries are a selection whose mix differs from that of the whole data set. Records with an inconclusive call do not appear. The source holds several records for some structures; these can differ, active in one and inactive in another. Calls of active or inactive are those of the source. Unless noted, calls come from the whole dose curve; as a rule, active = well fitted curve in the direction sought with a large enough effect in the repeat runs; inconclusive = weak or mixed curves; inactive = no such curve, though single readings can be large; an effect the other way counts as inactive or inconclusive.

By UniProt entry, the sequences of proteins in these tests, tags left out.
UniProt P16473, whole entry: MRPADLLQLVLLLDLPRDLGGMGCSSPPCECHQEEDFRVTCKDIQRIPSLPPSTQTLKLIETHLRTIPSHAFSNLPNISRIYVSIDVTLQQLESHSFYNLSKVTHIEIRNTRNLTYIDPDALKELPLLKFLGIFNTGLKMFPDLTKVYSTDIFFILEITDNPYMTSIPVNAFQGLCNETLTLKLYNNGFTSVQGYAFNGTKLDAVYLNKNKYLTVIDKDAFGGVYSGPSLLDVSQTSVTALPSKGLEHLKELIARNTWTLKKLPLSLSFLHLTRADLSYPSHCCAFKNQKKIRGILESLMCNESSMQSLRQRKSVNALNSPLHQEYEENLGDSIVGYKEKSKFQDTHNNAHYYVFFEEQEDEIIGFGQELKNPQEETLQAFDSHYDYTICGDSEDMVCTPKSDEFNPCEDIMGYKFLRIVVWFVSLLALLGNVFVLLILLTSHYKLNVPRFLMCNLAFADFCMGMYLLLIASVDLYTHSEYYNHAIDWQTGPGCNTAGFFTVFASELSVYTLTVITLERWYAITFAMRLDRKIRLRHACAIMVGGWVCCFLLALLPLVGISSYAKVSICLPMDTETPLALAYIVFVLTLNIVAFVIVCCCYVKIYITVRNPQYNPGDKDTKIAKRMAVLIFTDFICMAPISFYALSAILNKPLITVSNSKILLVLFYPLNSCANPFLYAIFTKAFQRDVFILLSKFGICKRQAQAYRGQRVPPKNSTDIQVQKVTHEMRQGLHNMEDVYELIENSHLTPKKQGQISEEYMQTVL

Experiments:
[1] = qHTS assay to identify small molecule antagonists of the estrogen related receptor signaling pathway with the pleiotropic PPARgamma coactivator (PGC) from Tox21 10K library - cell viability counter screen (AID 1224840; active = well fitted cell-killing curve with a large enough effect in the repeat runs, not every such curve was filed as active; note: nearly all actives have a fitted effect of over 40% in size); conditions: PGC/ERR reporter cells viability, CellTiter-Fluor, 17.5 h
Summary of the method: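 Here the PGC/ERR cells serve as a cytotoxicity control: they are exposed to compounds for 17.5 hours at 37 C, and live-cell signal is quantified using CellTiter-Fluor fluorescence.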

[2] = qHTS assay to identify small molecule antagonists of the estrogen related receptor signaling pathway with the pleiotropic PPARgamma coactivator (PGC) from Tox21 10K library (AID 1224841; call rule not given here; note: actives are mostly falling curves and most rising ones were filed inactive; nearly all actives have a fitted effect of over 50% in size; note: potency is the fitted concentration of half-maximal effect); conditions: PGC/ERR reporter cell line, ONE-Glo luciferase, 18 h; series mostly up to 92.4 µM
[3] = qHTS assay to identify small molecule agonists of the estrogen related receptor signaling pathway with the pleiotropic PPARgamma coactivator (PGC) from Tox21 10K library (AID 1224842); conditions: PGC/ERR reporter cell line, luciferase ONE-Glo, 18 h; note: nearly all actives have a fitted effect of over 15% in size
Summary of the method: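 PGC/ERR reporter cell line, 2,000 cells per well, incubated 6 h at 37 C before 23 nL compound in DMSO was added. After 18 h at 37 C, One-Glo luminescence read following 30 min at room temperature.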

[4] = qHTS assay to identify small molecule agonists of the estrogen related receptor (ERR) signaling pathway from Tox21 library (AID 1224849; calls by dose curve; note: nearly all actives have a fitted effect of over 15% in size); conditions: ERR reporter cell line, ONE-Glo luciferase, 18 h
Summary of the method: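 Six hours post-seeding at 37 C/5% CO2, ERR cells receive DMSO-solubilised compounds; after 18 h at 37 C, ONE-Glo reagent is applied and luminescence recorded.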

[5] = qHTS RealTime-Glo MT Cell Viability Assay in HepG2 cells - 24 hour (AID 1224867); conditions: RealTime-Glo luminescence; note: nearly all actives have a fitted effect of over 50% in size
Summary of the method: (§1)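 HepG2 cells were seeded at 600 cells/well together with NanoLuc luciferase and a cell-permeant prosubstrate, preincubated 5 h at 37 C/5% CO2, then pin-dosed with compounds in DMSO. Nonlytic luminescence from viable cells was read at each time point.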

[6] = qHTS RealTime-Glo MT Cell Viability Assay in HEK293 cells - 32 hour (AID 1224868); conditions: RealTime-Glo luminescence; note: top concentration of the series differs between compounds; nearly all actives have a fitted effect of over 50% in size
Summary of the method: (§2)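 HEK293 cells were seeded at 600 cells/well together with NanoLuc luciferase and cell-permeant prosubstrate, preincubated 5 h at 37 C/5% CO2, then given compound in DMSO by pintool. Luminescence from viable-cell prosubstrate reduction was read repeatedly over 40 h.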

[7] = A CellTox Green Cytotoxicity Assay to monitor cytotoxicity in HEK293 cells - 0 hour (AID 1224869); conditions: CellTox Green fluorescence; series mostly up to 76.8 µM; note: nearly all actives have a fitted effect of over 50% in size; note: potency is the fitted concentration of half-maximal effect
Summary of the method: (§3)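 Seeding of HEK293 cells together with cytotoxicity dye preceded a 5 h incubation at 37 C/5% CO2. Test compounds in DMSO were then added and fluorescence monitored across 40 h.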

[8] = qHTS RealTime-Glo MT Cell Viability Assay in HepG2 cells - 40 hour (AID 1224870); conditions: RealTime-Glo luminescence; at 76.8 µM (top of the series) unless noted; note: nearly all actives have a fitted effect of over 50% in size
Summary of the method: (§4)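 HepG2 cells (600/well) mixed with RealTime-Glo MT reagent, settled 5 h at 37 C/5% CO2 before compound addition. Nonlytic NanoLuc luminescence from viable-cell prosubstrate reduction read repeatedly during 40 h treatment at 37 C.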

[9] = A CellTox Green Cytotoxicity Assay to monitor cytotoxicity in HEK293 cells - 40 hour (AID 1224871); conditions: CellTox Green fluorescence; series mostly up to 76.8 µM; note: nearly all actives have a fitted effect of over 45% in size
Summary of the method: as §3

[10] = qHTS RealTime-Glo MT Cell Viability Assay in HEK293 cells - 16 hour (AID 1224872); conditions: RealTime-Glo luminescence; at 76.8 µM (top of the series) unless noted
Summary of the method: as §2

[11] = qHTS RealTime-Glo MT Cell Viability Assay in HepG2 cells - 8 hour (AID 1224873); conditions: RealTime-Glo luminescence; at 76.8 µM (top of the series) unless noted; note: nearly all actives have a fitted effect of over 55% in size
Summary of the method: as §4

[12] = A CellTox Green Cytotoxicity Assay to monitor cytotoxicity in HEK293 cells - 24 hour (AID 1224875); conditions: CellTox Green fluorescence; series mostly up to 76.8 µM; note: nearly all actives have a fitted effect of over 45% in size
Summary of the method: as §3

[13] = qHTS RealTime-Glo MT Cell Viability Assay in HepG2 cells - 32 hour (AID 1224877); conditions: RealTime-Glo luminescence; note: nearly all actives have a fitted effect of over 55% in size
Summary of the method: as §1

[14] = A CellTox Green Cytotoxicity Assay to monitor cytotoxicity in HepG2 cells - 24 hour (AID 1224878); conditions: CellTox Green fluorescence; series mostly up to 76.8 µM; note: nearly all actives have a fitted effect of over 45% in size; note: potency is the fitted concentration of half-maximal effect
Summary of the method: (§5)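 Nonlytic assay: viable cells exclude the dye, so fluorescence scales with cell death. HepG2 at 600 cells/well, compounds added after 5 h, signal read across 40 h.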

[15] = A CellTox Green Cytotoxicity Assay to monitor cytotoxicity in HepG2 cells - 40 hour (AID 1224879); conditions: CellTox Green fluorescence; series mostly up to 76.8 µM; note: nearly all actives have a fitted effect of over 40% in size
Summary of the method: as §5

[16] = qHTS RealTime-Glo MT Cell Viability Assay in HEK293 cells - 0 hour (AID 1224880); conditions: RealTime-Glo luminescence; at 76.8 µM (top of the series) unless noted; note: top concentration of the series differs between compounds; nearly all actives have a fitted effect of over 45% in size
Summary of the method: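 Tox21 screen in HEK293 using RealTime-Glo MT chemistry, with cells and reagent co-dispensed. Luminescence proportional to viable cell number was captured at intervals during 40 h compound exposure at 37 C.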

[17] = A CellTox Green Cytotoxicity Assay to monitor cytotoxicity in HepG2 cells - 0 hour (AID 1224882); conditions: CellTox Green fluorescence; series mostly up to 76.8 µM; note: nearly all actives have a fitted effect of over 35% in size; note: potency is the fitted concentration of half-maximal effect
Summary of the method: as §5

[18] = A CellTox Green Cytotoxicity Assay to monitor cytotoxicity in HepG2 cells - 32 hour (AID 1224883); conditions: CellTox Green fluorescence; series mostly up to 76.8 µM; note: nearly all actives have a fitted effect of over 50% in size
Summary of the method: as §5

[19] = qHTS assay to identify small molecule agonists of H2AX - cell viability counter screen (AID 1224847; calls by dose curve;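 note: wild-type CHO-K1 cells; top concentration of the series differs between compounds; nearly all actives have a fitted effect of over 30% in size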); conditions: CHO-K1 viability, CellTiter-Glo luminescence, 3 h; at 154 µM (top of the series) unless noted
Summary of the method: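 Cells plated first: CHO-K1, 1000 per well in 10% FBS medium, incubated overnight at 37C. Then 15-point compound titration added (final DMSO 0.76%) for 3 hr. Finally CellTiter-Glo added and luminescence read.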

[20] = target: Thyrotropin receptor (Homo sapiens) (UniProt P16473); experiment: qHTS assay to identify small molecule agonists of the thyroid stimulating hormone receptor (TSHR) signaling pathway (AID 1224843; calls by dose curve; note: nearly all actives have a fitted effect of over 45% in size); conditions: TSHR-HEK293 cells, cAMP HTRF, agonist mode, 30 min; at 92.4 µM (top of the series)
% is set by controls: 0 for no effect and ±100 for the full control effect.

C/C1=C2N=C(/C=C3N=C(/C(C)=C4\[N-][C@@](C)([C@@H]5N=C1[C@](C)(CCC(=O)NC[C@@H](C)OP(=O)([O-])O[C@H]1[C@@H](O)[C@@H](n6cnc7cc(C)c(C)cc76)O[C@@H]1CO)[C@H]5CC(N)=O)[C@@](C)(CC(N)=O)[C@@H]4CCC(N)=O)[C@@](C)(CC(N)=O)[C@@H]\3CCC(N)=O)C(C)(C)[C@@H]/2CCC(N)=O.[C-]#N.[Co+3]
inactive: viability change, negative = cytotoxic ([1]; at 42.5 µM (top of the series)) -15.8% | Potency [2] | activation ([3]; at 42.5 µM (top of the series)) -6.11% | activity change, positive = activation ([4]; at 42.5 µM (top of the series)) 0.0957% | activity change, negative = cytotoxicity ([5]; at 35.3 µM (top of the series)) -4.41% | activity change, negative = cytotoxic ([6]; at 35.3 µM (top of the series)) -7.76% | Potency [7] | activity change, negative = cytotoxic [8] -3.12% [at 35.3 µM] | Potency [9] | activity change, negative = cytotoxicity [10] -11.5% [at 35.3 µM] | viability change, negative = cytotoxic [11] -2.7% [at 35.3 µM] | Potency [12] | activity change, negative = cytotoxic ([13]; at 35.3 µM (top of the series)) -3.7% | Potency [14] | Potency [15] | activity change, negative = cytotoxicity [16] -12.3% [at 35.3 µM] | Potency [17] | Potency [18]

Cc1ccc([N+](=O)[O-])c([N+](=O)[O-])c1
inactive and 27.5 µM (active): Potency [7] | Potency [17]
70 µM (active) and inactive: Potency [2]
inactive and 19.5 µM (active): Potency [14]
inactive: activation ([3]; at 92.4 µM (top of the series)) -16.9% and -7.68% | activity change, negative = cytotoxicity [19] -7.39% | activity change, positive = activation ([4]; at 92.4 µM (top of the series)) -57.8% and -14.5% | activity change, negative = cytotoxicity ([5]; at 76.8 µM (top of the series)) -1.64% and -1.86% | activity change, negative = cytotoxic [8] 0.11% and 1.6% | viability change, negative = cytotoxic [11] -6.21% and -15% | activity change, negative = cytotoxic ([13]; at 76.8 µM (top of the series)) -0.375% and -0.711% | activity change, negative = cytotoxicity [16] -2.9% and -2.26%

CC(C)N(CCO)C(C)C
inactive: viability change, negative = cytotoxic ([1]; at 92.4 µM (top of the series)) -0.238% | Potency [2] | activation ([3]; at 92.4 µM (top of the series)) -6.85% | activation [20] 0.786% | activity change, negative = cytotoxicity [19] 1.06% | activity change, positive = activation ([4]; at 92.4 µM (top of the series)) -4.37% | activity change, negative = cytotoxicity ([5]; at 76.8 µM (top of the series)) -6.42% | activity change, negative = cytotoxic ([6]; at 76.8 µM (top of the series)) 1.15% | Potency [7] | activity change, negative = cytotoxic [8] -5.82% | Potency [9] | activity change, negative = cytotoxicity [10] -2.59% | viability change, negative = cytotoxic [11] -19.6% | Potency [12] | activity change, negative = cytotoxic ([13]; at 76.8 µM (top of the series)) -5.16% | Potency [14] | Potency [15] | activity change, negative = cytotoxicity [16] -2.83% | Potency [17] | Potency [18]

CP(=O)(O)OCCC[Si](O)(O)O
inactive: viability change, negative = cytotoxic ([1]; at 92.4 µM (top of the series)) 14.6% | Potency [2] | activation ([3]; at 92.4 µM (top of the series)) 5.14% | activity change, negative = cytotoxicity [19] 0.28% | activity change, positive = activation ([4]; at 92.4 µM (top of the series)) 15.2% | activity change, negative = cytotoxicity ([5]; at 76.8 µM (top of the series)) 1.34% | activity change, negative = cytotoxic ([6]; at 76.8 µM (top of the series)) -0.576% | Potency [7] | activity change, negative = cytotoxic [8] 0.212% | Potency [9] | activity change, negative = cytotoxicity [10] -0.816% | viability change, negative = cytotoxic [11] 1.68% | Potency [12] | activity change, negative = cytotoxic ([13]; at 76.8 µM (top of the series)) 1.16% | Potency [14] | Potency [15] | activity change, negative = cytotoxicity [16] -4.35% | Potency [17] | Potency [18]

COP(C)(=O)OC
inactive: viability change, negative = cytotoxic ([1]; at 92.4 µM (top of the series)) 7.32% and -5.07% | Potency [2] | activation ([3]; at 92.4 µM (top of the series)) -0.782% and -0.243% | activation [20] -2.7% and 2.68% | activity change, negative = cytotoxicity [19] -0.386% and -0.037% | activity change, positive = activation ([4]; at 92.4 µM (top of the series)) -2.54% and 18.4% | activity change, negative = cytotoxicity ([5]; at 76.8 µM (top of the series)) -0.247% and -0.532% | activity change, negative = cytotoxic ([6]; at 76.8 µM (top of the series)) 1.14% and 2.99% | Potency [7] | activity change, negative = cytotoxic [8] 0.229% and 2.98% | Potency [9] | activity change, negative = cytotoxicity [10] 4.73% and 3.15% | viability change, negative = cytotoxic [11] -0.324% and -3.66% | Potency [12] | activity change, negative = cytotoxic ([13]; at 76.8 µM (top of the series)) 0.711% and 0.224% | Potency [14] | Potency [15] | activity change, negative = cytotoxicity [16] -4.25% and -1.73% | Potency [17] | Potency [18]

CN(C)CCCl
inactive: viability change, negative = cytotoxic ([1]; at 92.4 µM (top of the series)) 1.23% | Potency [2] | activation [20] -0.368% | activity change, negative = cytotoxicity [19] 2.57% | activity change, positive = activation ([4]; at 92.4 µM (top of the series)) 1.07% | activity change, negative = cytotoxicity ([5]; at 76.8 µM (top of the series)) 3.14% | activity change, negative = cytotoxic ([6]; at 76.8 µM (top of the series)) 2.47% | Potency [7] | activity change, negative = cytotoxic [8] -1.58% | Potency [9] | activity change, negative = cytotoxicity [10] -0.141% | viability change, negative = cytotoxic [11] 1.12% | Potency [12] | activity change, negative = cytotoxic ([13]; at 76.8 µM (top of the series)) 0.22% | Potency [14] | Potency [15] | activity change, negative = cytotoxicity [16] -3.94% | Potency [17] | Potency [18]
